Measured affinities in a library of Ab-14 heavy chain variants

From the AlphaSeq antibody data of Engelhart et al. 2022 (doi:10.1038/s41597-022-01779-4), copy in the FLAb collection.

Target: peptide PDVDLGDISGINAS, taken from heptad repeat 2 (HR2) of SARS-CoV-2 spike.

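The starting antibody came from a phage panning campaign against this peptide. Library AAYL49 holds single substitutions and randomly drawn double and triple substitutions in the CDRs. AlphaSeq pools MATa yeast showing the antibodies with MATalpha yeast showing the peptide. After mating in shaken culture at 30 °C for 16 h, diploids were selected and their barcode pairs sequenced. A regression on co-assayed BCL2-family reference pairs converts the normalised counts of each replicate to an apparent Kd. There are three technical replicates.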

The variants keep the light chain, the linker and the frameworks of Ab-14 (scFv order VH, a (GGGGS)3 linker, VL).
VH: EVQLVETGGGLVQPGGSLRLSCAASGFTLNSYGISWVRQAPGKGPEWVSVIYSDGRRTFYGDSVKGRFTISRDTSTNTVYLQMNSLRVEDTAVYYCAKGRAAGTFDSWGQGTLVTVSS
VL: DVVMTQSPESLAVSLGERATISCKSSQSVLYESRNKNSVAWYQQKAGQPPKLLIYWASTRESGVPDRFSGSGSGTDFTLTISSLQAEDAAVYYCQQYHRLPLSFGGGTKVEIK

Substitutions are numbered in sequence along the VH above, starting at 1 (not Kabat). This list gathers variants with a substitution at F105 (VH, numbered from residue 1). The read-out is the apparent dissociation constant on a log10 scale (nM): the lower, the stronger. The mean shown is taken over the replicates in which the pair was detected. A pair that was not seen in any replicate is written "nd"; this usually means weak binding, but a binder can also be missed. In this assay the parent's reference entry averaged 0.65; its copy inside this library read 4.11 (one replicate of three). Empty control strains, which show no peptide, gave a signal in 15% of pairings with library AAYL49; the median was 4.06 and 95% of these signals were weaker than 2.83. No background was subtracted.

- Y32C R57G F105A = nd (0 of 3 replicates)
- G26K R56M F105Y = 2.33 (3 of 3 replicates)
- Y60M D62Q F105S = 5.17 (2 of 3 replicates)
- L29C F105T S107T = nd (0 of 3 replicates)
- D62R F105V S107N = nd (0 of 3 replicates)
- Y52L A101D F105N = 3.54 (2 of 3 replicates)
- G55R V64C F105W = 3.34 (1 of 3 replicates)
- S63V A101V F105V = 4.19 (1 of 3 replicates)
- F105Y = 1.13 (3 of 3 replicates)
- D54M V64A F105V = 4.85 (1 of 3 replicates)
- G26R G33S F105A = nd (0 of 3 replicates)
- F27K Y32G F105S = nd (0 of 3 replicates)
- F27T Y60H F105T = 2.82 (1 of 3 replicates)
- Y60L T104C F105K = nd (0 of 3 replicates)
- S31K K65L F105I = 1.18 (3 of 3 replicates)
- Y60R T104L F105R = nd (0 of 3 replicates)
- S31V F105L D106N = 1.83 (3 of 3 replicates)
- G26C G103V F105A = nd (0 of 3 replicates)
- N30K R57M F105E = 3.27 (1 of 3 replicates)
- L29H V64I F105S = 4.30 (1 of 3 replicates)
- S35T V50A F105K = nd (0 of 3 replicates)
- S31C G61V F105G = 2.41 (3 of 3 replicates)
- D62E T104F F105T = nd (0 of 3 replicates)
- L29V G61I F105I = 2.33 (3 of 3 replicates)
- I51T T104R F105W = 4.78 (1 of 3 replicates)
- G33C S53R F105V = nd (0 of 3 replicates)
- L29W T58G F105E = nd (0 of 3 replicates)
- F27I F105M = nd (0 of 3 replicates)
- L29P S63D F105W = 2.78 (2 of 3 replicates)
- I34R D62E F105S = nd (0 of 3 replicates)
- G55D T58A F105L = nd (0 of 3 replicates)
- Y52G G99D F105Y = nd (0 of 3 replicates)
- I51D R100C F105W = 5.20 (1 of 3 replicates)
- V64G F105G = 5.07 (1 of 3 replicates)
- Y60T F105R D106L = 3.33 (1 of 3 replicates)
- Y32R G103T F105M = 3.77 (2 of 3 replicates)
- R100S T104H F105S = 5.11 (1 of 3 replicates)
- R57M G103A F105S = nd (0 of 3 replicates)
- S63R G103I F105E = 1.38 (3 of 3 replicates)

Again, the first 4 entries without any signal:

{"changes": "Y32C R57G F105A", "mean, log10 nM": "nd", "detected": "0/3"}
{"changes": "L29C F105T S107T", "mean, log10 nM": "nd", "detected": "0/3"}
{"changes": "D62R F105V S107N", "mean, log10 nM": "nd", "detected": "0/3"}
{"changes": "G26R G33S F105A", "mean, log10 nM": "nd", "detected": "0/3"}